# Measured values taken from PubChem BioAssay (Tox21).
# The list shows a part of the results, in another mix than the full data. Records with an inconclusive call do not appear. Active and inactive are the calls of the source. Calls come from the whole dose curve; as a rule, active = well fitted cell-killing curve with a large enough effect in the repeat runs; inconclusive = weak or mixed curves, or effect the other way; inactive = flat fitted curve, though single readings scatter.
# Test: qHTS assay to identify small molecule that activate the aryl hydrocarbon receptor (AhR) signaling pathway - cell viability counter screen (AID 743086); note: nearly all actives have a fitted effect of over 45% in size;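 for viability change, negative = cytotoxic: HepG2 liver cells carrying the AhR DRE luciferase reporter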
# Settings: HepG2-AhR-luc viability, CellTiter-Fluor, 24 h; series mostly up to 70.3 µM; viability change, negative = cytotoxic: at the top concentration
# Text: U.S. Tox21 Program National Center for Advancing Translational Sciences [NCATS] NIH Chemical Genomics Center [NCGC] U.S. Environmental Protection Agency [EPA] National Institutes of Environmental Health Sciences [NIEHS] National Toxicology Program [NTP] U.S. Food and Drug Administration [FDA] Tox21 Assay overview: The Aryl hydrocarbon Receptor (AhR), a member of the family of basic helix-loop-helix transcription factors, is crucial to adaptive responses to environmental changes. AhR mediates cellular responses to environmental pollutants such as aromatic hydrocarbons through induction of phase I and II enzymes but also interacts with other nuclear receptor signaling pathways A cell based HepG2-AhR-luc assay (HG2L7.5c1 cell line, developed by Dr. Michael S. Denison, University of California at Davis) was used to assess the activation of AhR. HepG2 (human hepatocellular carcinoma) cells were stably transfected with an Ah receptor-responsive firefly luciferase reporter gene plasmid containing 20 dioxin responsive elements and luciferase reporter gene. Increased luciferase activity can be used to identify the compounds that induce AhR activation. The cytotoxicity of the compounds screened against the HepG2-AhR-luc cell line was tested in parallel by measuring the cell viability using CellTiter-Fluor assay in the same wells.
# Tox21 Assay Protocol Summary: 4000 cells in 5 uL/well were dispensed into white wall/solid bottom 1536-well plates using a Multidrop Combi (Thermo Fisher Scientific Inc., Waltham, MA) dispenser. After the assay plates were incubated at 37C for 5 h, 23 nL of compound or DMSO vehicle was transferred to the assay plates by a pintool station (Kalypsys, San Diego, CA). The plates were incubated at 37C for 24 hr. For cell viability measurement, 1 ul/well of CellTiter-Fluor reagent (Promega, Madison, WI) was added into the assay plates using a Flying Reagent Dispenser (FRD) (Aurora Discovery, CA),and then the assay plates were incubated at 37C for 30 min. The fluorescence intensity in the plates was measured using a ViewLux plate reader (PerkinElmer, Shelton, CT), followed by the addition of 4 uL of ONE-Glo Luciferase Assay reagent (Promega) using an FRD (Aurora Discovery). After the assay plates were incubated at room temperature for 30 min, luminescence intensity was measured using a ViewLux plate reader (Perkin Elmer).
# % is set by controls: 0 for no effect and ±100 for the full control effect; potency is the fitted concentration of half-maximal effect.
Structure (SMILES),"viability change, negative = cytotoxic",Potency
COP(=S)(Cl)OC,inactive: -2.78% [at 95 µM],
CCCCO[P+](=O)OCCCC,,inactive
O=[N+]([O-])c1ccc(S(=O)(=O)O)c([N+](=O)[O-])c1,inactive: -0.537% [at 95 µM],
CCOP(=S)(CC)Sc1ccccc1 (centres undefined),inactive: 1.31%,
CC(C)CCCCCCCOP(OCCCCCCCC(C)C)Oc1ccccc1,inactive: 1.99%,
COC(=O)Cl,inactive: 0.826%,
CCOC(=O)Cl,inactive: -2.27%,
NC(=O)Nc1ccc([As](=O)(O)O)cc1,,inactive
CCNC(C)Cc1ccc2c(c1)OCO2 (centres undefined),inactive: -0.487% [at 95 µM],
ClP(Cl)c1ccccc1,inactive: 1.81%,
CCCCC(CC)CO[P+](=O)OCC(CC)CCCC (centres undefined),inactive: 8.5%,
O=[p+]1oc2ccccc2c2ccccc21 (centres undefined),inactive: -2.12%,
CN(N=O)C(=N)N[N+](=O)[O-],inactive: -17.4%,
CN(C(=O)Cc1ccccc1)[C@H]1CC[C@@]2(CCCO2)C[C@@H]1N1CCCC1,inactive: -29%,
O=P(Cl)(Oc1ccccc1)Oc1ccccc1,inactive: -0.692%,
O=P(Cl)(Cl)c1ccccc1,inactive: 0.797%,
O=C(OC1CN2CCC1CC2)c1ccccc1 (centres undefined),inactive: 10%,
CN(C(=O)Cc1cccc2occc12)[C@H]1CC[C@@]2(CCCO2)C[C@@H]1N1CCCC1,inactive: -3.23%,
O=[As]c1ccccc1 (centres undefined),,active: 2.17 µM
